The list shows a part of the results, in another mix than the full data. Inconclusive results are not listed. Active and inactive are the calls of the source. Calls follow the shape of the dose curve; as a rule, active = well fitted inhibition curve with a large enough effect; inconclusive = small, poorly fitted or top-dose-only effect; inactive = flat fitted curve, though single readings scatter.
The compounds below were run against Serine/threonine-protein kinase PLK1 (Homo sapiens) (UniProt P53350) (assay: qHTS for Inhibitors of PLK1-PDB (polo-like kinase 1 - polo-box domain): Primary Screen). Conditions: Plk1 PBD binding of FITC phosphopeptide, fluorescence polarization.
% is scaled to controls: 0 for no effect and ±100 for the full control effect; potency is read from the fitted curve at half-maximal effect.
Also: nearly all actives have a fitted effect of over 65% in size.
For max response, negative = inhibition in this document: series mostly up to about 57 µM.

Amino acid sequences for entries named in this document (tags omitted).
UniProt P53350, whole entry, looked up: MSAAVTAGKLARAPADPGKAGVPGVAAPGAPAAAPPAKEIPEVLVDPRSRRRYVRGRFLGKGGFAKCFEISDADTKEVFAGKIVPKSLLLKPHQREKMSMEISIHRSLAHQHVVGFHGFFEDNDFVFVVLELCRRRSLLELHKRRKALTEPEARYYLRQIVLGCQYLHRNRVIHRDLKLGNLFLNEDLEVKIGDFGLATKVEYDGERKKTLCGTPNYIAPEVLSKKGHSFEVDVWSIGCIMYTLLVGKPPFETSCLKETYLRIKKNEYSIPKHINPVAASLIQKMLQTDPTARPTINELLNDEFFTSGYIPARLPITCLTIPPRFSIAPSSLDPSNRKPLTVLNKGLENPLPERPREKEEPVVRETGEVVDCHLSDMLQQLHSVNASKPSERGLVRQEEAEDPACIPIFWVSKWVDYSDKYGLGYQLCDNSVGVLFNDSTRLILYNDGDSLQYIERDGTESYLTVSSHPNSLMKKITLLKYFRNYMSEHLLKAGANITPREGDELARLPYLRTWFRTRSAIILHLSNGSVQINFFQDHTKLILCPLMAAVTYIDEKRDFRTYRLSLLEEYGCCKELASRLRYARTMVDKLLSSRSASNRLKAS

Q: How did the Potency turn out when O=P(Nc1nccs1)(c1ccccc1)c1nc2ccccc2s1 (stereo not drawn) was run?
A: The Potency was active: 0.336 µM.

Q: For CCOP1(=S)c2c(C)nn(CCC#N)c2N=C(c2ccccc2F)N1C (stereo not drawn), which max response, negative = inhibition is on record?
A: The max response, negative = inhibition was inactive: -9.62%.

Q: O=C(O)COc1ccc([As](=O)(O)O)cc1[N+](=O)[O-] was tested. Which max response, negative = inhibition did it give?
A: Its max response, negative = inhibition is inactive: -15.8%.

Q: With Nc1ccccc1[As](=O)(O)c1ccccc1 as the compound, how does the max response, negative = inhibition read?
A: The max response, negative = inhibition was inactive: 1.04%.

Q: With NC(=O)Nc1ccc([As](=O)(O)O)cc1 as the compound, how does the max response, negative = inhibition read?
A: The max response, negative = inhibition was inactive: -4.13%.

Q: Which max response, negative = inhibition does the source give for CN(C(=O)Cc1ccc(Cl)c(Cl)c1)[C@H]1CC[C@@]2(CCCO2)C[C@@H]1N1CCCC1 here?
A: Its max response, negative = inhibition is inactive: 0.0569%.

Q: For O=[N+]([O-])c1ccc2c(c1)nnn2O, which max response, negative = inhibition is on record?
A: Its max response, negative = inhibition is inactive: -7.86%.

Q: With CN(C)C(=O)c1cc([N+](=O)[O-])cc2c1-c1c(cc([N+](=O)[O-])cc1[N+](=O)[O-])C2=O as the compound, how does the Potency read?
A: The Potency was active: 29.9 µM.

Q: How did the max response, negative = inhibition turn out when CN(C(=O)Cc1ccccc1)[C@@H]1CC[C@]2(CCCO2)C[C@H]1N1CCCC1 was run?
A: Its max response, negative = inhibition is inactive: -6.71%.

Q: With N#CCCN(C(=O)COC(=O)C(O)(c1ccccc1)c1ccccc1)c1ccc(F)cc1 as the compound, how does the max response, negative = inhibition read?
A: The max response, negative = inhibition was inactive: -8.82%.

Q: With Cc1ccc(C(=O)OC2CN3CCC2CC3)cc1 (stereo not drawn) as the compound, how does the max response, negative = inhibition read?
A: Its max response, negative = inhibition is inactive: 1.42%.

Q: CC1CCC(C(C)C)C(OP(=O)(Nc2ccccn2)c2ccccc2)C1 (stereo not drawn) was tested. Which max response, negative = inhibition did it give?
A: The max response, negative = inhibition was inactive: -4.39%.

Q: How did the max response, negative = inhibition turn out when Cc1nn(-c2ccccc2)c2c1P(=O)(N1CCOCC1)N(C)C(c1ccccc1)=N2 (stereo not drawn) was run?
A: The max response, negative = inhibition was inactive: -10.3%.

Q: Which max response, negative = inhibition does the source give for CCCC1OP(=O)(Nc2ccccc2)OCC1CC (stereo not drawn) here?
A: The max response, negative = inhibition was inactive: -9.84%.

Q: With O=C(/C=C/c1ccccc1)OC1CN2CCC1CC2 (stereo not drawn) as the compound, how does the max response, negative = inhibition read?
A: Its max response, negative = inhibition is inactive: -11.4%.

Q: With CN(C)C1(CNC(=O)c2ccc(S(C)(=O)=O)cc2)CCCCC1 as the compound, how does the max response, negative = inhibition read?
A: The max response, negative = inhibition was inactive: 1.25%.

Q: With Cc1ccc(S(=O)(=O)N(CCCN)CCCc2c(C)nc(N)[nH]c2=O)cc1 as the compound, how does the max response, negative = inhibition read?
A: The max response, negative = inhibition was inactive: -13.1%.

Q: Cc1ccc(OCC(=O)OC2CN3CCC2CC3)cc1 (stereo not drawn) was tested. Which max response, negative = inhibition did it give?
A: The max response, negative = inhibition was inactive: 0.33%.

Q: How did the max response, negative = inhibition turn out when O=[As](O)(c1cccs1)c1cccs1 was run?
A: Its max response, negative = inhibition is inactive: -1.23%.

Q: With NS(=O)(=O)c1cccc(NC(=O)COC(=O)C(O)(c2ccccc2)c2ccccc2)c1 as the compound, how does the max response, negative = inhibition read?
A: The max response, negative = inhibition was inactive: 1.99%.

Q: For O=P1(Nc2ccc(Br)cn2)COc2ccccc2OC1, which max response, negative = inhibition is on record?
A: Its max response, negative = inhibition is inactive: -0.38%.

Q: With Nc1cccc([As](=O)(O)c2ccccc2)c1 as the compound, how does the max response, negative = inhibition read?
A: The max response, negative = inhibition was inactive: -7.31%.

Q: CCOP(=O)(Nc1ccc(C)cn1)OCC was tested. Which max response, negative = inhibition did it give?
A: The max response, negative = inhibition was inactive: -2.59%.

Q: Which max response, negative = inhibition does the source give for CN(CCCl)Cc1cc(Cl)c(NC2=NCCN2)c(Cl)c1 here?
A: The max response, negative = inhibition was inactive: -23.7%.

Q: Which max response, negative = inhibition does the source give for CCOP(=O)(NC(=NC(C)c1ccccc1)NC(C)c1ccccc1)OCC (stereo not drawn) here?
A: The max response, negative = inhibition was inactive: -6.5%.

Q: For CCC1=CC2Cc3nc4ccc(Cl)cc4c(N)c3C(C1)C2 (stereo not drawn), which max response, negative = inhibition is on record?
A: The max response, negative = inhibition was inactive: -6.66%.

Q: How did the max response, negative = inhibition turn out when O=P1(Nc2ccccn2)COc2ccccc2OC1 was run?
A: Its max response, negative = inhibition is inactive: 1.15%.

Q: How did the max response, negative = inhibition turn out when Clc1n[nH]nc1-c1nn[nH][15n]1 was run?
A: The max response, negative = inhibition was inactive: -6.6%.

Q: With O=P1(N(CCCl)CCCl)NCCC(C(F)(F)F)O1 (stereo not drawn) as the compound, how does the max response, negative = inhibition read?
A: Its max response, negative = inhibition is inactive: -5.31%.

Q: How did the max response, negative = inhibition turn out when COc1ccccc1CNC(=O)COC(=O)C(O)(c1ccccc1)c1ccccc1 was run?
A: The max response, negative = inhibition was inactive: -4%.

Q: For CC1(CBr)Cn2c(nc3ccccc3c2=O)S1 (stereo not drawn), which max response, negative = inhibition is on record?
A: Its max response, negative = inhibition is inactive: -7.09%.

Q: Which max response, negative = inhibition does the source give for CN(C(=O)Cc1ccc(Cl)c(Cl)c1)[C@@H]1CCCC[C@H]1N1CCCC1 here?
A: The max response, negative = inhibition was inactive: -22.2%.

Q: How did the max response, negative = inhibition turn out when CC(C)/C=N\N=C(\N)N[N+](=O)[O-] was run?
A: The max response, negative = inhibition was inactive: -10.7%.

Q: For COC(=O)C1(C)COP(=O)(N2CCCC2)OC1 (stereo not drawn), which max response, negative = inhibition is on record?
A: Its max response, negative = inhibition is inactive: -13.6%.

Q: COP1(=S)c2c(C)nn(CCC#N)c2N=C(c2ccc(F)cc2)N1C (stereo not drawn) was tested. Which max response, negative = inhibition did it give?
A: Its max response, negative = inhibition is inactive: -13.8%.

Q: O=C(Nc1ccncc1[N+](=O)[O-])c1ccc([N+](=O)[O-])cc1[N+](=O)[O-] was tested. Which max response, negative = inhibition did it give?
A: Its max response, negative = inhibition is inactive: -10.9%.

Q: O=C(COc1ccccc1)OC1CN2CCC1CC2 (stereo not drawn) was tested. Which max response, negative = inhibition did it give?
A: Its max response, negative = inhibition is inactive: -0.165%.

Q: O=C(O)C(=O)c1ccc(N(CCCl)CCCl)cc1 was tested. Which max response, negative = inhibition did it give?
A: Its max response, negative = inhibition is inactive: -15.4%.

Q: With CCOC(=O)c1ccc(NC(=O)C(C)(CCl)SC)cc1 (stereo not drawn) as the compound, how does the max response, negative = inhibition read?
A: Its max response, negative = inhibition is inactive: -16.9%.

Q: CSc1ccc(Nc2c([N+](=O)[O-])cc([N+](=O)[O-])cc2[N+](=O)[O-])cc1 was tested. Which max response, negative = inhibition did it give?
A: The max response, negative = inhibition was inactive: -16.2%.

Q: With O=C(OC1CN2CCC1CC2)c1cccc([N+](=O)[O-])c1 (stereo not drawn) as the compound, how does the max response, negative = inhibition read?
A: Its max response, negative = inhibition is inactive: -0.918%.

Q: How did the max response, negative = inhibition turn out when CC1CCNP(=O)(N(CCCl)CCCl)O1 (stereo not drawn) was run?
A: The max response, negative = inhibition was inactive: -2.74%.

Q: O=C(O)C(O)c1ccc(N(CCCl)CCCl)cc1 (stereo not drawn) was tested. Which max response, negative = inhibition did it give?
A: Its max response, negative = inhibition is inactive: -5.22%.

Q: CCOC(=O)Nc1ccc([As](=O)(O)O)c(O)c1 was tested. Which max response, negative = inhibition did it give?
A: Its max response, negative = inhibition is inactive: -21.9%.

Q: For Cc1cc(SC(NC(=O)c2ccccc2)C(Cl)(Cl)Cl)nc(C(C)C)n1 (stereo not drawn), which Potency is on record?
A: Its Potency is active: 15 µM.

Q: With CCCCOc1ccc(C(=O)NCC2(N3CCCCC3)CCCCC2)cc1OC as the compound, how does the max response, negative = inhibition read?
A: Its max response, negative = inhibition is inactive: -4.87%.

Q: COP(=O)(OC)N1CC1c1ccccc1 (stereo not drawn) was tested. Which max response, negative = inhibition did it give?
A: The max response, negative = inhibition was inactive: -3.87%.

Q: Which max response, negative = inhibition does the source give for CCOC(=O)Nc1cccc([As](=O)(O)O)c1 here?
A: The max response, negative = inhibition was inactive: -13.2%.

Q: Which max response, negative = inhibition does the source give for O=[N+]([O-])c1ccc(Nc2ccc(Oc3ccc([N+](=O)[O-])cc3[N+](=O)[O-])cc2)c([N+](=O)[O-])c1 here?
A: Its max response, negative = inhibition is inactive: -10.2%.

Q: How did the Potency turn out when Cc1cc(SC(NC=O)C(Cl)(Cl)Cl)ncn1 (stereo not drawn) was run?
A: The Potency was active: 26.7 µM.

Q: How did the max response, negative = inhibition turn out when O=P(Nc1ccccn1)(c1cccc2ccccc12)c1cccc2ccccc12 was run?
A: The max response, negative = inhibition was inactive: -7.07%.

Q: For O=[N+]([O-])c1ccc(-c2cc([N+](=O)[O-])c(O)c([N+](=O)[O-])c2)cc1, which Potency is on record?
A: The Potency was active: 29.9 µM.

Q: Which max response, negative = inhibition does the source give for COc1cc(C(=O)NCC2(N3CCOCC3)CCCCC2)ccc1OCC(C)C here?
A: The max response, negative = inhibition was inactive: -6.93%.

Q: Which max response, negative = inhibition does the source give for C[As](=O)(O)c1cccc(C(=O)O)c1 here?
A: The max response, negative = inhibition was inactive: -8.13%.

Q: Which max response, negative = inhibition does the source give for O=[As](O)(c1ccc(O)cc1)c1ccccc1O here?
A: The max response, negative = inhibition was inactive: 1.54%.

Q: With Cc1ccc2nc3c(c(C)c2c1)CC(C(Cl)Cl)S3 (stereo not drawn) as the compound, how does the max response, negative = inhibition read?
A: Its max response, negative = inhibition is inactive: -7.44%.

Q: How did the max response, negative = inhibition turn out when Cc1ccc(OP(=O)(Nc2ccc([N+](=O)[O-])cn2)Oc2ccc(C)cc2)cc1 was run?
A: The max response, negative = inhibition was inactive: -12.7%.

Q: [N-]=[N+]=NC1CCCCC1NC(=O)c1cc([N+](=O)[O-])cc([N+](=O)[O-])c1 (stereo not drawn) was tested. Which max response, negative = inhibition did it give?
A: Its max response, negative = inhibition is inactive: -7.94%.

Q: How did the max response, negative = inhibition turn out when COC(=O)C1(C)COP(=O)(N2CCCCCC2)OC1 (stereo not drawn) was run?
A: Its max response, negative = inhibition is inactive: 1.25%.

Q: How did the max response, negative = inhibition turn out when CC(C)c1ccc(OP(=O)(Nc2ccccn2)Oc2ccccc2F)cc1 (stereo not drawn) was run?
A: The max response, negative = inhibition was inactive: -2.99%.

Q: With ClCCSc1nnc(-c2cccnc2)o1 as the compound, how does the max response, negative = inhibition read?
A: The max response, negative = inhibition was inactive: -10.4%.

Q: With O=[N+]([O-])c1cc([N+](=O)[O-])c(-c2ccn[nH]2)s1 as the compound, how does the max response, negative = inhibition read?
A: The max response, negative = inhibition was inactive: -28.1%.

Q: Which max response, negative = inhibition does the source give for CC(C)NC(=O)NP(=O)(Oc1ccccc1)Oc1ccccc1 here?
A: The max response, negative = inhibition was inactive: -9.05%.

Q: CCN(CC)C(=S)SC(NC=O)C(Cl)(Cl)Cl (stereo not drawn) was tested. Which Potency did it give?
A: Its Potency is active: 13.4 µM.

Q: How did the max response, negative = inhibition turn out when O=C(OC1CN2CCC1CC2)c1cccc2[nH]cnc12 (stereo not drawn) was run?
A: The max response, negative = inhibition was inactive: -3.14%.

Q: For Cc1cc(=O)[nH]c(N[N+](=O)[O-])n1, which max response, negative = inhibition is on record?
A: Its max response, negative = inhibition is inactive: -4.85%.

Q: With O=C(OC1CN2CCC1CC2)C12CC3CC(CC(C3)C1)C2 (stereo not drawn) as the compound, how does the max response, negative = inhibition read?
A: Its max response, negative = inhibition is inactive: -0.47%.

Q: With Cc1c2c(nc3ccccc13)SC(C(Cl)Cl)C2 (stereo not drawn) as the compound, how does the max response, negative = inhibition read?
A: The max response, negative = inhibition was inactive: -6.68%.

Q: With COc1cc(I)ccc1[As](=O)(O)O as the compound, how does the max response, negative = inhibition read?
A: Its max response, negative = inhibition is inactive: -19.1%.

Q: How did the max response, negative = inhibition turn out when O=P1(N(CCCl)CCCl)OCCCN1CCCl (stereo not drawn) was run?
A: The max response, negative = inhibition was inactive: -7.09%.

Q: Which max response, negative = inhibition does the source give for O=P1(N(CCCl)CCCl)Nc2ccccc2N1 here?
A: The max response, negative = inhibition was inactive: -7.65%.

Q: With COc1ccc(N/C(=N/P(=O)(N2CCOCC2)N2CCOCC2)N2CCOCC2)cc1 as the compound, how does the max response, negative = inhibition read?
A: Its max response, negative = inhibition is inactive: -1.27%.

Q: Which max response, negative = inhibition does the source give for O=[N+]([O-])c1cc(Oc2ccc([N+](=O)[O-])cc2C(F)(F)F)cc([N+](=O)[O-])c1 here?
A: Its max response, negative = inhibition is inactive: 4.3%.

— PubChem BioAssay AID720504 (National Center for Advancing Translational Sciences (NCATS), 2013)
